From patent US7166588B2 (priority 2000, dated 2007) come the findings set out here.

Chains of the proteins cited; added tags and fusions are not shown. Residues count along the entry.
UniProt P06276, 29-602: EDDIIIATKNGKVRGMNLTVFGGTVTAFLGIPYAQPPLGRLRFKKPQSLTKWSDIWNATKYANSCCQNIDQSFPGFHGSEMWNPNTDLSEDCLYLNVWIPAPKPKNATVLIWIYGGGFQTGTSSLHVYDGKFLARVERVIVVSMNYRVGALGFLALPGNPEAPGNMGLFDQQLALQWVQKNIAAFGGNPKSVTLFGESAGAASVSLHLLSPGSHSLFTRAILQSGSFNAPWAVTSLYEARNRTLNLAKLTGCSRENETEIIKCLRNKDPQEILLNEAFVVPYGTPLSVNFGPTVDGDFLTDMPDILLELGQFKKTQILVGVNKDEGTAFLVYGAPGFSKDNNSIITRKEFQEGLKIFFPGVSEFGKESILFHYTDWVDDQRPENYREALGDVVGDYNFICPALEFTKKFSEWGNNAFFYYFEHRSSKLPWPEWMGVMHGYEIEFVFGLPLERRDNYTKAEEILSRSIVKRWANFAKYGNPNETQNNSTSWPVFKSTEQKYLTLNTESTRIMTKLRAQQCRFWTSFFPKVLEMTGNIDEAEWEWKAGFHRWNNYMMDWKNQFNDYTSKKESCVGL

For the assay, the target named is butyrylcholinesterase (BChE), human recombinant (Homo sapiens, UniProt P06276). As to the kind of experiment: biochemical.
As to `COc1ccc2c3c1O[C@@H]1C[C@H](O)C=CC31CCN(C(=O)NC(C)C)C2` (stereo partly drawn) [SPH-1269], the 50% inhibitory concentration (IC50) was found to be 10 µM.

For the molecule `COc1ccc2c3c1OC1CC(O)C=CC31CCN(CCC(=O)OC(C)(C)C)C2` (stereo not drawn) [SPH-1277], the IC50 is 7.3 µM.

As to `COc1ccc2c3c1O[C@H]1CC(O)C=CC31CCN(C(=O)NC(C)(C)C)C2` (stereo partly drawn) [SPH-1283], the 50% inhibitory concentration (IC50) stood at 100 µM.

Consider `COc1ccc2c3c1O[C@@H]1CC(O)C=CC31CCN(C)C2C#N` (stereo partly drawn) [SPH-1290], for which the half-maximal inhibitory concentration (IC50) was 100 µM.

On to `COc1ccc2c3c1O[C@@H]1CC(O)C=CC31CCN(C(=O)OCC1c3ccccc3-c3ccccc31)C2` (stereo partly drawn) [SPH-1292], for which the IC50 was 100 µM.

Regarding `COc1ccc2c3c1OC1CC(O)C=CC31CCN(CCN1CC3CC1CN3c1ccccc1)C2` (stereo not drawn) [SPH-1329], the IC50 came to 0.85 µM.

A word on the IC50: it is the concentration that inhibits the measured activity by half.
